Assay results: ChEMBL document CHEMBL3864170, “Pyrazole Inhibitors of GluN2B NMDA Receptor Subunit” (ACS Med Chem Lett, 2016)

By UniProt entry, the sequences of proteins in these tests, tags left out. Where a name states a change or a piece, a line headed by the entry shows the natural chain unless it says otherwise.
UniProt Q00960, whole entry: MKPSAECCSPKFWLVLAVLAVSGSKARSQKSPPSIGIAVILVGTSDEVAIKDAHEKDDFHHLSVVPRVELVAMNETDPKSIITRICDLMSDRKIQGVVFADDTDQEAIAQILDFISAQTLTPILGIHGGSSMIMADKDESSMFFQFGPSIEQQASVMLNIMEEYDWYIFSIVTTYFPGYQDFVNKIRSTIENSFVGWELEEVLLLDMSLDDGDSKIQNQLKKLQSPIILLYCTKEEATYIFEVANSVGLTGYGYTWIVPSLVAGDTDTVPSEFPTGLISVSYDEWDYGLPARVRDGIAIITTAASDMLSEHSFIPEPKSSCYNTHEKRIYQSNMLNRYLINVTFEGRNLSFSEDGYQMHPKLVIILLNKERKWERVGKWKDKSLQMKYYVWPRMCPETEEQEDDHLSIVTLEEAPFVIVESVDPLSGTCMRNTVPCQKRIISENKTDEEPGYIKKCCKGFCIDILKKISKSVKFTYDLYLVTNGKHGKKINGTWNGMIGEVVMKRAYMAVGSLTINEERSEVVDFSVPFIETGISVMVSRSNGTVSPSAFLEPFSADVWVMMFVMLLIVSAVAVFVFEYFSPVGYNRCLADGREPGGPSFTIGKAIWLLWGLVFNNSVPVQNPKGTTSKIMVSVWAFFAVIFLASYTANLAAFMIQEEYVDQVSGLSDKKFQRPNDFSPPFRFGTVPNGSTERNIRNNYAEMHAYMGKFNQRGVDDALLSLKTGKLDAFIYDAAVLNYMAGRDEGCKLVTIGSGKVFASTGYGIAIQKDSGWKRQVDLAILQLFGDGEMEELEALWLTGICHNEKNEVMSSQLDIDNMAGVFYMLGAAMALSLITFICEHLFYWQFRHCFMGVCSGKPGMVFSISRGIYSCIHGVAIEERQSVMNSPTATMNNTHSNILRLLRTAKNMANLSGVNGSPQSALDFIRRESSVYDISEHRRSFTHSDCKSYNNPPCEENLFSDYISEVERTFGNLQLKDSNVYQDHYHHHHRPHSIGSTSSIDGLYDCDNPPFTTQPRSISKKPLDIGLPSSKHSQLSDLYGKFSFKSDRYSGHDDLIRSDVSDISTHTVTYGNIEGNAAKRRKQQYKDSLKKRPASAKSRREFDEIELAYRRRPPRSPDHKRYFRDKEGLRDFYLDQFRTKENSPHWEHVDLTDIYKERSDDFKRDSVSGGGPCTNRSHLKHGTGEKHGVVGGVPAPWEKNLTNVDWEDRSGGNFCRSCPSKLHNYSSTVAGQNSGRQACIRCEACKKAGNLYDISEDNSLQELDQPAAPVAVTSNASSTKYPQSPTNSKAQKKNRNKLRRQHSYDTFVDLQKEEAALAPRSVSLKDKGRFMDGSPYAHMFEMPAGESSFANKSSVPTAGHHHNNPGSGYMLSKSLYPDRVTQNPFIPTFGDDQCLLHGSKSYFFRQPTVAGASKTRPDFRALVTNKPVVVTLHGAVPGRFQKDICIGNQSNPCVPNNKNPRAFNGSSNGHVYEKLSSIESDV
UniProt Q12809: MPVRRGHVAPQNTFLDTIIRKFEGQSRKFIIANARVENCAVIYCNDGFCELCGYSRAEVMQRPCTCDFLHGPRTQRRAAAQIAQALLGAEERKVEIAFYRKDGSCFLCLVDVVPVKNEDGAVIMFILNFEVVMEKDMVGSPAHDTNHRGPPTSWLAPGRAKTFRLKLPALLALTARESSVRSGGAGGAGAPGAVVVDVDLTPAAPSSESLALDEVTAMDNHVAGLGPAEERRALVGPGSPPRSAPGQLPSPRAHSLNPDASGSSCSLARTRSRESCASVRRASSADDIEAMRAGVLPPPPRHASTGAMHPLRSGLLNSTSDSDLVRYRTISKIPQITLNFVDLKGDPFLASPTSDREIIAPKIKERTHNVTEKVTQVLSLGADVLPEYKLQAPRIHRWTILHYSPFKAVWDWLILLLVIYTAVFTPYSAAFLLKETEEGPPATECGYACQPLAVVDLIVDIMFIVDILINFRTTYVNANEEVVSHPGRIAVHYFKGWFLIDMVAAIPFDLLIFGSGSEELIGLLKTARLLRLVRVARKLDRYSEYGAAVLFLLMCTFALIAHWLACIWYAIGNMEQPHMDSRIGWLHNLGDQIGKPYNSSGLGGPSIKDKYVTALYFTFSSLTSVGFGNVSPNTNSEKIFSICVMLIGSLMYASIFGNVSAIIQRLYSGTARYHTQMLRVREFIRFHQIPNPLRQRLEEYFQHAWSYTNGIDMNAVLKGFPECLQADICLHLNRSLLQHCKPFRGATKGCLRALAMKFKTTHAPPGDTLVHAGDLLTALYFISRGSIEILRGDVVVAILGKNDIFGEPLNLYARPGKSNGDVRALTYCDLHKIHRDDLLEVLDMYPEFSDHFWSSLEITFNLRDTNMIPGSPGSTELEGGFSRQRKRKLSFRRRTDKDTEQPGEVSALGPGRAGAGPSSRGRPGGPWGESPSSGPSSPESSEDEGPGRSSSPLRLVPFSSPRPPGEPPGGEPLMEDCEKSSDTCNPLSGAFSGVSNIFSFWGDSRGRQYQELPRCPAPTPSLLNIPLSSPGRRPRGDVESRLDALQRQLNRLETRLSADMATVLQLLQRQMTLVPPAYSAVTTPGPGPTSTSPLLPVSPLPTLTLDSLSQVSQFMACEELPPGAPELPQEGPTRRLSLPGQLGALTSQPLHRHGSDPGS

Assays:
[1] = molecular target: Glutamate receptor ionotropic, NMDA 2B (Rattus norvegicus, UniProt Q00960); assay: Antagonist activity at Wistar rat brain NR2B assessed as inhibition of glutamate/glycine-induced Ca2+ flux measured after 90 secs
hERG (KCNH2) = hERG (KCNH2) (Homo sapiens, UniProt Q12809); assay: Displacement of [3H]-dofetilide from human ERG expressed in HEK293 cell membranes after 90 mins by scintillation counting; conditions: membranes of HEK293 cells that express human ERG, probe [3H]-dofetilide

FC(F)Oc1cc(-c2cnn(Cc3cc[nH]n3)c2)ccc1Cl
IC50 [1]: 5.21 nM | IC50 at 90 min (hERG (KCNH2)): 9.56 µM
